In paper PMC6719321 (Clinical Pharmacokinetics, 2019):

Assay: Trial 1
Conditions: warfarin 25 mg single dose alone, N = 50; median (minimum, maximum)

## CC(=O)C[C@@H](c1ccccc1)c1c(O)c2ccccc2oc1=O [S-warfarin]
  tmax: 1.0 h
